# Several values for one entry are separate records, joined by “and”; a condition that tells them apart may be missing. Equal entries are not always repeated.
# Sequences of proteins named here, by UniProt entry; tags and fusion partners are left off.
# UniProt P00533, whole entry, looked up: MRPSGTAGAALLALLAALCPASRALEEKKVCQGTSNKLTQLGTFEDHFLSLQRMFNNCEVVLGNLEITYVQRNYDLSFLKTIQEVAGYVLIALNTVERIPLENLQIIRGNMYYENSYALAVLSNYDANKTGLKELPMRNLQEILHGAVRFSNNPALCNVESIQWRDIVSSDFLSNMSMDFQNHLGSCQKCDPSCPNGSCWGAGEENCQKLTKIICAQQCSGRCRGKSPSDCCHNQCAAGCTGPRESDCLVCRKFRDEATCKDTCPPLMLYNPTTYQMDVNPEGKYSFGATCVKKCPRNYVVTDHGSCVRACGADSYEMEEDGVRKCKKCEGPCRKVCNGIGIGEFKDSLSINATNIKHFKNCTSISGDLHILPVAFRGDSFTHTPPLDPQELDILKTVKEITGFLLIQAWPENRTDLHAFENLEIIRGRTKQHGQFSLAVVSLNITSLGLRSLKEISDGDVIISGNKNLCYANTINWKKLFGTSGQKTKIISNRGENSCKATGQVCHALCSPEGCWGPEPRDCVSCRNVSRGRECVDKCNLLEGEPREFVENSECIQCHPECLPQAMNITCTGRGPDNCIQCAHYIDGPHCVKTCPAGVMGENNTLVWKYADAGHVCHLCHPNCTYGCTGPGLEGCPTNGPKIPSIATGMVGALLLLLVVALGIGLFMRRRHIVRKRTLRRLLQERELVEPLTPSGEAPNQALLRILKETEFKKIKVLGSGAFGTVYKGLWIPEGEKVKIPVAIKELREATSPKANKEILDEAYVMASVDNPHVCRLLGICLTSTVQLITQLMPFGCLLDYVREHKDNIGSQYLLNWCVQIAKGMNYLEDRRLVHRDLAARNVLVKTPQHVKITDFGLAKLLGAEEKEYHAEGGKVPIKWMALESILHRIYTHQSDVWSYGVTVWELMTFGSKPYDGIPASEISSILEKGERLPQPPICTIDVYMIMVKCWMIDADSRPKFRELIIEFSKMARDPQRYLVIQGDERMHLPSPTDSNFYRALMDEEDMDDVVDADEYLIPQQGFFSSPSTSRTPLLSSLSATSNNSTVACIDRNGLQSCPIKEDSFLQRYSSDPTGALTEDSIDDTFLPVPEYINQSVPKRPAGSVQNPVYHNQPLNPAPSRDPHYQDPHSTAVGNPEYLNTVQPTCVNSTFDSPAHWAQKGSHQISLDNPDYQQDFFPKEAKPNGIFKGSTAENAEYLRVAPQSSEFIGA
# Target: EGFR (human) (UniProt P00533)
# Details: a431
smiles,measurement,value
CCOc1cc2ncc(C#N)c(Nc3cccc(Br)c3)c2cc1NC(=O)/C=C/CN1CCOCC1,IC50,0.102 µg/mL and 0.044 µg/mL

# Source: the Kinase Knowledgebase extract (Sharma et al. 2016)
